{"source": "patent US8147838B2", "about": "“Peptide” (priority 2005, dated 2012)", "conditions_in_all_cases": "percent of positive control peptide binding; peptide at 1.11×10^−5M", "key": {"[1]": {"target": "MHC class I allele A*0101 (A1) (Homo sapiens, UniProt P04439, A114D/A174V/A182V/D101N/D185E/E176A/E190D/L180R/Q94H/R68K/S129P/T187R/V100A/V91M/W191G)", "experiment": "iTopia peptide binding assay, A*0101", "procedure": "(§1) The 9 mers were tested for Peptide Binding, Off Rate and Affinity using iTopia Epitope Discovery System in accordance with the manufacturer's instructions. Briefly, 96 well microtitre plates coated with MHC molecules representing different MHC alleles are used to identify candidate peptides. […] Determinations are performed in duplicate using an ELISA plate reader and included allele specific positive controls.\n(§2) i) Peptide Binding—This assay measures the ability of individual peptides to bind to the MHC molecules under standardized optimal binding conditions. The assay is performed for all the test peptides across the selected MHC alleles. The test peptides identified as “binders” are characterized further in terms of affinity and dissociation experiments.\n(§3) Following a period of binding under optimal conditions, excess antibody is removed and a measurement of total fluorescence taken (D).\n(§4) The binding of the test peptides to the MHC molecules was performed at 1.11×10^−5M of peptide under optimal, standardised test conditions. A control peptide was run in parallel on the same plate and at the same concentration as the test peptides.\n(§5) The level of binding is expressed as a percent of positive control peptide binding for each allele."}, "[2]": {"target": "MHC class I allele A*0201 (A2) (Homo sapiens, UniProt P04439, D140Y/D185E/D98H/E176V/E277Q/G131W/G231S/I119V/I121R/I166T/I218V/L300P/L318F/N151K/N90K/P208A/P217A/Q86G/Q94H/R138H/R169H/T345S)", "experiment": "iTopia peptide binding assay, A*0201", "procedure": "as §1, §2, §3, §4, §5"}, "[3]": {"target": "MHC class I allele A*0301 (A3) (Homo sapiens, UniProt P04439)", "experiment": "iTopia peptide binding assay, A*0301", "procedure": "as §1, §2, §3, §4, §5"}, "[4]": {"target": "MHC class I allele B*0702 (B7) (Homo sapiens, UniProt P01889)", "experiment": "iTopia peptide binding assay, B*0702", "procedure": "as §1, §2, §3, §4, §5"}}}
{"compound": "CC(C)C[C@H](NC(=O)[C@H](CC(N)=O)NC(=O)[C@H](CC(C)C)NC(=O)[C@H](C)NC(=O)[C@H](C)NC(=O)[C@H](CC(C)C)NC(=O)[C@H](CCC(=O)O)NC(=O)[C@H](C)NC(=O)[C@@H](N)CC(C)C)C(=O)O", "note": "[Peptide 59]", "values": [{"measurement": "Peptide binding, MHC Class I Molecule A*0101", "setting": "[1]", "result": "15 % of control"}, {"measurement": "Peptide binding, MHC Class I Molecule A*0201", "setting": "[2]", "result": "63 % of control"}, {"measurement": "Peptide binding, MHC Class I Molecule A*0301", "setting": "[3]", "result": "3 % of control"}, {"measurement": "Peptide binding, MHC Class I Molecule B*0702", "setting": "[4]", "result": "16 % of control"}]}
